Measured water solubility values of organic chemicals

Solubility in water is on a log10 molar scale (set defined at 25 °C).

* O=C(O)CNCCNCC(=O)O.[Br-].[Br-].[Pt+2]: water solubility -2.552 (log10 mol/L)
* O=C(Nc1cc(Cl)c(NC(=O)c2cc3ccccc3c(N=Nc3cc(C(F)(F)F)ccc3Cl)c2O)cc1Cl)c1cc2ccccc2c(N=Nc2cc(C(F)(F)F)ccc2Cl)c1O: water solubility -7.692 (log10 mol/L)
* O=C1O[C@@H]2[C@@H](O)[C@H](O)O[C@@H]2[C@H]1O: water solubility 0.164 (log10 mol/L)
* Nc1cccc2c(O)c(S(=O)(=O)O)ccc12: water solubility -2.318 (log10 mol/L)
* Clc1ccc(COC(Cn2ccnc2)c2ccc(Cl)cc2Cl)c(Cl)c1 (centres undefined): water solubility -5.737 (log10 mol/L)
* Clc1cc(Cl)c(Oc2c(Cl)ccc(Cl)c2Cl)cc1Cl: water solubility -7.88 (log10 mol/L)
* CC1(C)NC(=O)N(Cc2ccccc2)C1=O: water solubility -1.795 (log10 mol/L)
* CC(=O)OCn1ncc2c(O)ncnc21: water solubility -2.555 (log10 mol/L)
* NS(=O)(=O)c1ccc(S(=O)(=O)CCCCO)s1: water solubility -1.481 (log10 mol/L)
* C[C@]12CC[C@H]3[C@@H](CCC4=CC(=O)CC[C@@]43C)[C@@H]1CC[C@@H]2C(=O)CO: water solubility -3.55 (log10 mol/L)
* CCOC(=O)C1=C(COCCN2C(=O)c3ccccc3C2=O)NC(C)=C(C(=O)OC)C1c1ccccc1Cl (centres undefined): water solubility -4.501 (log10 mol/L)
* O=C(O)CCCCCC(C(=O)O)(c1ccccc1)c1ccccc1: water solubility -3.497 (log10 mol/L)
* CCOC(=O)[C@@H](O)[C@H](O)[C@H](O)[C@@H](O)C(=O)OCC: water solubility -1.069 (log10 mol/L)
* CC12CCC(c3cnc(NS(=O)(=O)c4ccc(N)cc4)nc31)C2(C)C (centres undefined): water solubility -4.077 (log10 mol/L)
* CC(C)C(=O)OCC(=O)[C@@]12O[C@H](C3CCCCC3)O[C@@H]1C[C@H]1[C@@H]3CCC4=CC(=O)C=C[C@]4(C)[C@H]3[C@@H](O)C[C@@]12C: water solubility -5.537 (log10 mol/L)
* Cc1c(F)c(N2CCNC(C)C2)cc2c1c(=O)c(C(=O)O)cn2C1CC1 (centres undefined): water solubility -2.755 (log10 mol/L)
* Cc1ccc(CC(=O)O)c(C)c1: water solubility -2.389 (log10 mol/L)
* O=C(O)C(=O)c1ccccc1C(=O)O: water solubility 0.521 (log10 mol/L)
* COc1ccc(OC)c(N)c1: water solubility -1.859 (log10 mol/L)
* CCC(C(=O)O)C(C)(C)C(=O)O (centres undefined): water solubility -0.673 (log10 mol/L)
* CCOC(=O)NC(=O)CC(=O)NC(=O)OCC: water solubility -0.993 (log10 mol/L)
* CC1(C)CC(=O)C(CC2C(=O)CC(C)(C)CC2=O)C(=O)C1: water solubility -1.591 (log10 mol/L)
* COc1cc2oc(C)cc(=O)c2c(OC)c1OC: water solubility -1.574 (log10 mol/L)
* CS/C(C)=N/O: water solubility -0.924 (log10 mol/L)
* CCOC(=O)CC(=O)OCC: water solubility -0.82 (log10 mol/L)
* COc1cc(CO)ccc1O: water solubility -1.887 (log10 mol/L)
* COC(=O)C=Cc1ccccc1: water solubility -2.744 (log10 mol/L)
* C/C(=N/NC(=O)c1ccncc1)C(=O)O: water solubility -3.316 (log10 mol/L)
* C=C(CC(=O)O)C(=O)OCC: water solubility -0.918 (log10 mol/L)
* CC(C)(C)[C@@H](NC=O)C(=O)O: water solubility -1.901 (log10 mol/L)
* CCN(CC)C(C)=O: water solubility -0.331 (log10 mol/L)
* CC1(C)O[C@H]2O[C@H]([C@H]3COC(C)(C)O3)[C@H](OC(=O)c3ccccc3)[C@H]2O1: water solubility -3.301 (log10 mol/L)
* CCOC(=O)c1cc([N+](=O)[O-])cc([N+](=O)[O-])c1: water solubility -3.01 (log10 mol/L)
* COc1cc(S(=O)(=O)CCOS(=O)(=O)[O-])c(C)cc1/N=N/c1c(S(=O)(=O)[O-])cc2c(/N=N/c3ccc(S(=O)(=O)CCOS(=O)(=O)[O-])cc3S(=O)(=O)[O-])c(N)ccc2c1O.[Na+].[Na+].[Na+].[Na+]: water solubility -3.749 (log10 mol/L)
* C#C[C@]1(O)CC[C@H]2[C@@H]3CCc4cc(OC5CCCC5)ccc4[C@H]3CC[C@@]21C: water solubility -5.366 (log10 mol/L)
* CN1C(CC(=O)c2ccccc2)CCCC1CC(O)c1ccccc1.Cl (centres undefined): water solubility -1.175 (log10 mol/L)
* CC(CCC(C)C(=O)O)C(=O)O (centres undefined): water solubility -0.415 (log10 mol/L)
* O=C(O)CNCCNCC(=O)O: water solubility -1.311 (log10 mol/L)
* CCC(C)(CC(=O)O)C(=O)O (centres undefined): water solubility -0.017 (log10 mol/L)
* CCCC(O)C(CC)CO (centres undefined): water solubility -0.54 (log10 mol/L)
* CC(C)[C@H](N)C(=O)OCC(CO)OCn1cnc2c(=O)nc(N)[nH]c21 (stereo not given in full): water solubility -1.869 (log10 mol/L)
* CNS(=O)(=O)c1cc(OC)c(N=Nc2c(O)c(C(=O)Nc3ccc4[nH]c(=O)[nH]c4c3)cc3ccccc23)cc1C: water solubility -8.217 (log10 mol/L)
* CC(C(=O)O)C(C)(C)C(=O)O (centres undefined): water solubility -0.224 (log10 mol/L)
* C[C@H](O[C@H](C)C(N)=O)C(N)=O: water solubility 0.034 (log10 mol/L)
* O=S1CSCS(=O)C1 (centres undefined): water solubility -1.001 (log10 mol/L)
* CN(C)C(=O)COC(=O)c1ccccc1O: water solubility -1.705 (log10 mol/L)
* CN(C)C(=O)Nc1cccc(Cl)c1: water solubility -2.36 (log10 mol/L)
* CCC(SSC(CC)C(=O)O)C(=O)O (centres undefined): water solubility -0.962 (log10 mol/L)

Excerpt, the final 8 entries:

{"smiles": "CC(C)[C@H](N)C(=O)OCC(CO)OCn1cnc2c(=O)nc(N)[nH]c21", "stereo": "stereo not given in full", "water solubility (log10 mol/L)": "-1.869"}
{"smiles": "CNS(=O)(=O)c1cc(OC)c(N=Nc2c(O)c(C(=O)Nc3ccc4[nH]c(=O)[nH]c4c3)cc3ccccc23)cc1C", "water solubility (log10 mol/L)": "-8.217"}
{"smiles": "CC(C(=O)O)C(C)(C)C(=O)O", "stereo": "centres undefined", "water solubility (log10 mol/L)": "-0.224"}
{"smiles": "C[C@H](O[C@H](C)C(N)=O)C(N)=O", "water solubility (log10 mol/L)": "0.034"}
{"smiles": "O=S1CSCS(=O)C1", "stereo": "centres undefined", "water solubility (log10 mol/L)": "-1.001"}
{"smiles": "CN(C)C(=O)COC(=O)c1ccccc1O", "water solubility (log10 mol/L)": "-1.705"}
{"smiles": "CN(C)C(=O)Nc1cccc(Cl)c1", "water solubility (log10 mol/L)": "-2.36"}
{"smiles": "CCC(SSC(CC)C(=O)O)C(=O)O", "stereo": "centres undefined", "water solubility (log10 mol/L)": "-0.962"}

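These are experimental values that the OPERA curators gathered from public databases to train and test their QSAR models. The files give a single number for a compound and property, which may rest on several reports. How each value was measured is not recorded, so precision varies. A value may pool stereoisomers or salt forms, and the file does not say which form was measured. Unmarked limits or estimates from the upstream databases cannot be ruled out.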

Source: data files of OPERA 2.9 (Mansouri et al.), github.com/kmansouri/OPERA.